{"source": "patent US20160279190A1", "about": "“MODULATION OF AXON DEGENERATION” (GENENTECH, INC., priority 2008, published 2016)", "test_system": "dorsal root ganglion neurons", "test": "EGFR ectodomain in NGF withdrawal-induced axon degeneration", "type": "cell-based, mouse", "settings": "50 μg/mL, added 24 hours prior to or at the same time as 25 μg/ml anti-NGF", "protocol": "Materials used in these studies include BD Biocoat PDL/Laminin coated glass 8 well chamber slides (BD 354688); L15 medium (Invitrogen 11415114); albumin from bovine serum (BSA) (Sigma A7906-500 g); fetal bovine serum (Sigma F2442-100 ml); N3 supplement (see above); Fluoromount G (Electron Microscopy Sciences 17984-25); 24×60 mm No. 1 coverslips (VWR 48393 106); monoclonal anti-neuronal class III beta-tubulin (Covance MMS-435P); Nerve Growth Factor 2.5 S, mouse (Roche 11362348001) in Ham's F12; and Triton X-100 (Sigma T8787-100 ml). Solutions used in these experiments include 25 ml N3/F12 medium (23 ml of Ham's F12; 1 ml of N3 supplement; 1 ml of 1M glucose; 25 ng/ml of NGF) and 30% Sucrose/8% PFA (see above).\nEctodomains (R&D Systems) were resuspended in sterile filtered 0.1% BSA in PBS to 1 mg/ml. Mouse E13.5 embryos were dissected out and place into L15 medium. Using forceps, the ventral region of the embryo was opened, organs removed, ribs cut away, and spinal cord dissected out with DRGs attached. The spinal cords with DRGs attached were placed into L15 medium+5% goat serum on ice. DRGs were removed with a tungsten needle and the remaining spinal cord was disposed of. 8 well slides were filled with N3-F12 plus 25 ng/ml NGF. DRGs were sectioned into halves. […]"}
{"substance": "EGFR ectodomain: EGFR ectodomain from R&D Systems, added to bind free EGFR ligands", "values": [{"measurement": "block of axon degeneration induced by NGF withdrawal", "result": "does not block axon degeneration"}]}
